{
  "sequences": {"note": "Amino acid sequences for entries named in this document (tags omitted). A change or cut given only in a name is not applied to a line headed by its entry.", "UniProt Q61009": "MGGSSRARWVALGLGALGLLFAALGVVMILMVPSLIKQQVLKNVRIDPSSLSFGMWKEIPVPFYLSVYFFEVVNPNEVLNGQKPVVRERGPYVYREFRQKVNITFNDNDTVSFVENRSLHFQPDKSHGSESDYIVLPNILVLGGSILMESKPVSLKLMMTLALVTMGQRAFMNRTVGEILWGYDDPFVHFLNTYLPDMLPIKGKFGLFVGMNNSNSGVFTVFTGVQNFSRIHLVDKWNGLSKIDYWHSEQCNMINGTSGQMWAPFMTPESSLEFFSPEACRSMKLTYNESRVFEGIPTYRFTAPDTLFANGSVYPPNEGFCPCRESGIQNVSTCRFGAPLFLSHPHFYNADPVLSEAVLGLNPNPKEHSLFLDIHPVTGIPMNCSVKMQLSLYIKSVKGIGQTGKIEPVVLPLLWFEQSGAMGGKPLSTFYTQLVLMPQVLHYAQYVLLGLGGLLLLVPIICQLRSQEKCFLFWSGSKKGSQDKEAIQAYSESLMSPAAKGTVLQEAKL"},
  "source": "patent US20040171073A1",
  "about": "“Compounds for modulation of cholesterol transport” (Massachusetts Institute of Technology, priority 2002, published 2004)",
  "biological_target": "murine SR-BI (Mus musculus, UniProt Q61009)",
  "assay": "Uptake of DiI from DiI-HDL by ldlA[mSR-BI] cells (high throughput screen and concentration dependence)",
  "type": "cell-based",
  "data": [
    {"smiles": "O=C(Nc1ccc(Cl)c([N+](=O)[O-])c1)c1ccc([N+](=O)[O-])cc1[N+](=O)[O-]", "values": [
      {"measurement": "ENDOHDL Test 1", "setting": "Test 1", "value": 0.58},
      {"measurement": "ENDOHDL Test 2", "setting": "Test 2", "value": 0.6}
    ]}
  ]
}
